For test [1], the target named is Kappa-type opioid receptor (Cavia porcellus, UniProt P41144). Kind of test: Displacement of [3H]-U69593 from KOR in guinea pig brain membranes measured by competitive radioligand receptor binding assay. (In a radioligand displacement assay an active substance lowers the binding of a labelled ligand.)
Test [2] deals with Sigma non-opioid intracellular receptor 1 (Cavia porcellus, UniProt Q60492).
The target of test [3] is Delta-type opioid receptor (Rattus norvegicus, UniProt P33533). Briefly: Displacement of [3H]-DPDPE from DOR in rat brain membranes measured by competitive radioligand receptor binding assay.

Amino acid sequences for entries named in this document (tags omitted). A change or cut given only in a name is not applied to a line headed by its entry.
UniProt P41144: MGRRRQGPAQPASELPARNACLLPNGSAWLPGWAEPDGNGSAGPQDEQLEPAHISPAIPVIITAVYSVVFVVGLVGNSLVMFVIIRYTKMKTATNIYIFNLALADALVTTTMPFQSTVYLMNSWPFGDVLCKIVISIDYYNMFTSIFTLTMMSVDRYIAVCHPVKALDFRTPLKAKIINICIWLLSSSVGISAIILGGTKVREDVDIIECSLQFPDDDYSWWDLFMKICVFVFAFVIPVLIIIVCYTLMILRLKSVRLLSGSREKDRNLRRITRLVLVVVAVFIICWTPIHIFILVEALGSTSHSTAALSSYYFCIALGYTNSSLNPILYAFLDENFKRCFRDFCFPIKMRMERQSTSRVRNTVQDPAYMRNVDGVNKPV
UniProt Q60492, whole entry, looked up: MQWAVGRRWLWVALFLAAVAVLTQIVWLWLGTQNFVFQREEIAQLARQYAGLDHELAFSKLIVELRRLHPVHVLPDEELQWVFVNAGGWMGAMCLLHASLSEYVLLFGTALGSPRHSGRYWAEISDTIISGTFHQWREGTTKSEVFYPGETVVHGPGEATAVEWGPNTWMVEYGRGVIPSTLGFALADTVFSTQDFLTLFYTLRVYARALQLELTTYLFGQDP
UniProt P33533, whole entry, looked up: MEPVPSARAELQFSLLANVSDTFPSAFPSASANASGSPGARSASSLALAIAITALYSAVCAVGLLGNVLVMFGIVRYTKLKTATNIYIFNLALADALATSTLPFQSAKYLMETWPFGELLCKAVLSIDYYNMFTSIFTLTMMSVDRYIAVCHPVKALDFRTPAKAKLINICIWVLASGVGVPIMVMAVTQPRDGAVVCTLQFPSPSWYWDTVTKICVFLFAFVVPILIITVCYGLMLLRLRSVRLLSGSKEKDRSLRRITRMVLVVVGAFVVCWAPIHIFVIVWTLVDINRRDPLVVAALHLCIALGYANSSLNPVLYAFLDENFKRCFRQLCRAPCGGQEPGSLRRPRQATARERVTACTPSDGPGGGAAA

`O=C(Cc1ccc(Cl)c(Cl)c1)N1CC[C@H]2CC[C@@H](N3CCCC3)[C@@H]1C2`: the Ki (as a rule, a measure of affinity in units of concentration, obtained from inhibition or displacement) in test [1] was determined as 18 nM; in test [2], 6.5 nM.
With `CN(C)[C@@H]1CCC2CCN(C(=O)Cc3ccc(Cl)c(Cl)c3)C1C2` (mixture of isomers), the Ki was 23 nM in test [1], over 1000 nM in test [3] and 170 nM in test [2].
With `O=C(Cc1ccc(Cl)c(Cl)c1)N1CCC2CC[C@@H](N3CCCC3)C1C2` (stereo partly drawn), in test [1], affinity was put at a Ki of 26 nM.
For `O=C(Cc1ccc(Cl)c(Cl)c1)N1CC[C@@H]2CC[C@H](N3CCCC3)[C@H]1C2`, the Ki turned out to be 123 nM in test [1] and 14 nM in test [2].

Values taken from ChEMBL document CHEMBL5154699 (Eur J Med Chem, 2022).
